{"source": "PubChem BioAssay AID1117324", "about": "(Cheminformatics & Chemogenomics Research Group (CCRG), …, 2015)", "system": "VEGF-stimulated ADSC/ECFC co-culture, nuclear area imaging", "assay": "nuclear area loss in endothelial-stromal co-culture, dose response, cell-based, VEGF stimulation, IC50 (AID 1117324)", "note": "Activity calls are given as the source filed them. How the calls were made is not given here.", "data": [{"compound": "C/C1=C2N=C(/C=C3N=C(/C(C)=C4\\[N-][C@@](C)([C@@H]5N=C1[C@](C)(CCC(=O)NC[C@@H](C)OP(=O)([O-])O[C@H]1[C@@H](O)[C@@H](n6cnc7cc(C)c(C)cc76)O[C@@H]1CO)[C@H]5CC(N)=O)[C@@](C)(CC(N)=O)[C@@H]4CCC(N)=O)[C@@](C)(CC(N)=O)[C@@H]\\3CCC(N)=O)C(C)(C)[C@@H]/2CCC(N)=O.[C-]#N.[Co+3]", "values": [{"measurement": "IC50", "value": "inactive: > 10 µM"}]}]}
